## Ab-14 light chain CDR variants: yeast mating affinities

Source: Engelhart et al. 2022 (doi:10.1038/s41597-022-01779-4), MIT Lincoln Laboratory and A-Alpha Bio; data file from the FLAb repository.

Antigen: PDVDLGDISGINAS, a 14-residue peptide of the SARS-CoV-2 spike HR2 region.

The variants keep the heavy chain, the linker and the frameworks of Ab-14 (scFv order VH, a (GGGGS)3 linker, VL).
VH: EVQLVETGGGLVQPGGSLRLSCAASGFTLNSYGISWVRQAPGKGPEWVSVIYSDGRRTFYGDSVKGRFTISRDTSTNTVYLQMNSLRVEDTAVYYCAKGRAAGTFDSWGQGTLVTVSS
VL: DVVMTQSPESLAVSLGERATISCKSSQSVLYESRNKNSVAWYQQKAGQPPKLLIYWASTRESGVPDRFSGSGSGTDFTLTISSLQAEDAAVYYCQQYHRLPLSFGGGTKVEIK

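The starting antibody came from a phage panning campaign against this peptide. Library AAYL50 holds single substitutions and randomly drawn double and triple substitutions in the CDRs. The assay is AlphaSeq: two haploid yeast populations carry antibody and antigen on their surface. The frequency of each diploid, read from paired DNA barcodes, reflects how well the two displayed proteins bind. Scores were corrected for input abundance and mapped to Kd with protein pairs of known affinity run in the same pool. There are three technical replicates.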

Changes read parent residue, position, new residue, counted from the first residue of the VL shown.
Affinities are written as log10 Kd with Kd in nM; a lower number is a better binder.
Replicates are averaged; those with no signal do not enter the mean.
"ND" means that the variant was in the library but no mating with the target was seen in that replicate; the authors take this as a sign of poor binding, and no number exists.

changes | log10 Kd, replicates | mean log10 Kd (nM) | signal with controls
S26D Q27L A57F | ND 4.16 ND | 4.16 | 1 of 9 (3.95)
T59L S62C S103N | 1.55 1.94 1.94 | 1.81 | 3 of 9 (5.17)
N37E H98N S103M | 1.16 1.30 1.43 | 1.29 | 1 of 9 (4.62)
Q27F N37E | 2.08 1.97 2.52 | 2.19 | 1 of 9 (3.01)
V29R R34F T59P | 4.30 3.04 ND | 3.67 | 4 of 9 (4.62)
S26E Q27C N37M | 2.58 2.36 2.19 | 2.38 | 2 of 9 (4.44)
Q27T H98K R99T | 1.01 1.10 1.34 | 1.15 | 3 of 9 (3.80)
S28E L30T R99D | ND ND ND | ND | 0 of 9
S25L A40G L102M | ND ND ND | ND | 0 of 9
N37D R60W L102H | ND ND 4.97 | 4.97 | 1 of 9 (3.50)
S28E E32A | 0.68 0.92 0.95 | 0.85 | 2 of 9 (4.11)
E32F N37T S58C | ND ND ND | ND | 1 of 9 (4.28)
E32W W56P R60Y | ND ND ND | ND | 2 of 9 (3.63)
S26C E32Y S58V | 4.16 ND 4.44 | 4.30 | 0 of 9
K24R K36N L100T | 2.12 2.38 1.99 | 2.16 | 3 of 9 (4.16)
S28R Q95D H98W | 1.45 1.56 1.52 | 1.51 | 1 of 9 (3.51)
A40W T59E S103N | ND ND ND | ND | 0 of 9
S25C N37D | 0.51 0.97 0.70 | 0.72 | 2 of 9 (4.21)
Q95H Q96T L100C | ND ND ND | ND | 1 of 9 (2.68)
L30P K36I A40F | ND ND ND | ND | 1 of 9 (2.43)
S28Y V39R S103C | ND 4.16 ND | 4.16 | 4 of 9 (3.91)
S58A | 1.60 1.13 1.51 | 1.41 | 0 of 9
V39P S103G | ND 4.28 ND | 4.28 | 1 of 9 (3.72)
S28I Q95P Y97M | 3.38 2.60 3.07 | 3.02 | 2 of 9 (4.46)
V29H W56K S103L | 0.47 0.79 0.57 | 0.61 | 0 of 9
K24G S28E A40V | ND 3.93 ND | 3.93 | 0 of 9
S25P N35K R60E | 4.79 4.45 3.50 | 4.25 | 3 of 9 (4.35)
S26E S28M S103I | ND 3.11 ND | 3.11 | 0 of 9
L30H N37M S58L | ND ND ND | ND | 0 of 9
V29F N35D Q95P | ND ND ND | ND | 2 of 9 (2.92)
K36V S58V R99T | ND 4.08 ND | 4.08 | 0 of 9
W56P | 4.01 ND ND | 4.01 | 0 of 9
N35W Q95L Y97M | ND ND ND | ND | 0 of 9
R60A E61G S103V | ND ND ND | ND | 2 of 9 (3.86)
S38L Q95F | ND ND 4.89 | 4.89 | 0 of 9
Q27T W56P E61I | ND ND 5.08 | 5.08 | 2 of 9 (3.54)
S28A V29K S38K | ND ND ND | ND | 0 of 9
S58H S62L S103H | 2.12 2.56 2.25 | 2.31 | 2 of 9 (4.45)

The last 4 entries again:

changes,"log10 Kd, replicates",mean log10 Kd (nM),signal with controls
S38L Q95F,ND ND 4.89,4.89,0 of 9
Q27T W56P E61I,ND ND 5.08,5.08,2 of 9 (3.54)
S28A V29K S38K,ND ND ND,ND,0 of 9
S58H S62L S103H,2.12 2.56 2.25,2.31,2 of 9 (4.45)

Background: pairings of library AAYL50 with three empty control strains gave a value in 18% of cases (median 4.19, 5th percentile 2.99). Values in that range, when seen in few replicates, are hard to tell from nonspecific mating. Also given: how often the same scFv was detected with the empty control strains, with their mean in brackets.
For reference, the parent read 0.65 as the reference entry and 1.68 as a member of this library.